Reference: ChEMBL document CHEMBL5104179, “Discovery and Structural Characterization of Small Molecule Binders of the Human CTLH E3 Ligase Subunit GID4” (J Med Chem, 2022)

Target: T1, Glucose-induced degradation protein 4 homolog (Homo sapiens) (UniProt Q8IVV7)
T1 sequence (whole entry): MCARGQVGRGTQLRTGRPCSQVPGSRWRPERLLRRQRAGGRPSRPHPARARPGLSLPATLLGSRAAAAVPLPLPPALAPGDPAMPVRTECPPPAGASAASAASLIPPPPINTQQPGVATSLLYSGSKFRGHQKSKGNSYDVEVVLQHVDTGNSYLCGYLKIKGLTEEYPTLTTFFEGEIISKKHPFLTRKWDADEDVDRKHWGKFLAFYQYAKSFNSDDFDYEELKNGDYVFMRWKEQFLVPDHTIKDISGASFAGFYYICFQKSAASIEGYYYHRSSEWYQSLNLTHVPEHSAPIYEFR

Q: For `Clc1ccc(NC2=NCC(CI)S2)cc1` (configuration not stated), which ΔTm is on record?
A: -1.7 °C

Q: For `ICC1CN=C(Nc2ccccc2)S1` (configuration not stated), which ΔTm is on record?
A: -0.6 °C
